In US20240216401A1, “COMBINATION THERAPY BY USING AKR1C3-ACTIVATED COMPOUND WITH IMMUNE CHECKPOINT INHIBITOR” (OBI Pharma, Inc., priority 2021, published 2024):

Columns and labels:
Format in all cases: in vivo, Mus musculus
[1] = tested on: T helper (TH) cells (CD45^+CD4^+ T cells) in tumor-infiltrating lymphocytes; assay: Example 2: flow cytometry, percentage of TH cells in TILs; settings: G2: OBI-3424 (0.3 mg/kg), individual animals
Procedure: (§1) Mice were sacrificed by CO2 euthanasia at the end of the study duration, and the connective tissue around tumor was resected. The tumor samples were then weighed and cut equally into three sections if the tumor weight over 400 mg. The tumor tissue was prepared for the isolation of tumor-infiltrating lymphocytes (TILs). The rest of one section was fixed in 10% formaldehyde and embedded in paraffin; the other was stored at a temperature below −70° C.
(§2) The tumor samples were dissected into smaller fragments using scalpels and then digested with a cocktail of collagenase, DNase I, and Hyaluronidase (Collagenase #C5138, DNase I #D5025, Hyaluronidase #H6254, SigmaAldrich) for at least 2 hours.
(§3) Cells were stained with the fluorescently conjugated surface antibodies and incubated for 30 minutes at 4° C., and then resuspended in staining buffer for flow cytometric analysis. Flow cytometry was done using a Navios EX Flow Cytometer (Beckman Coulter). Data were analyzed using the Kaluza Analysis Software (Beckman Coulter).

[2] = Example 1: body weight and mortality of HepG2 tumor bearing humanized mice; settings: OBI-3424 1 mg/kg IV, antibody 10 mg/kg IP (20 from Day 15)
Procedure: Each group contains five mice. The human hepatocellular carcinoma cell line HepG2 were subcutaneously inoculated to the advanced immune deficiency mice. Total of 30 mice were included in this study.
3.1. […] The injection was performed using insulin syringe with the dosage of 10 mg/kg (Dosage of injection was changed to 20 mg/kg from Day 15) and injection volume of 10 mL/kg. […] The reference item was administered for G1. The procedure followed the standards of sample administration.
3.2. The test item anti-hPD-L1 antibody or reference items were intraperitoneally injected to the mice on Day 8 after the inoculation of tumor cells. The injection was performed using insulin syringe with the dosage of 10 mg/kg (Dosage of injection was changed to 20 mg/kg from Day 15) and injection volume of 10 mL/kg. The test item anti-hPD-L1 was continuously administered on Day 8, 11, 15, 18, 22, 25, 29 and 32 for G4 and G6. The reference item was administered for G1. The procedure followed the standards of sample administration.
3.3. […] The injection was performed using insulin syringe with the dosage of 1 mg/kg and injection volume of 5 mL/kg. […] The reference item was administered for G1. The procedure followed the standards of sample administration.
The measurement was performed from the next day of the inoculation. The animal body weights were measured and recorded twice per week.

[3] = tested on: CTL cells (CD45^+CD8^+ T cells) in tumor-infiltrating lymphocytes; assay: Example 2: flow cytometry, percentage of CTL cells in TILs; settings: G3: 1 mg/kg; individual mice
Procedure: as §1, §2, §3

C[C@H](OP(=O)(N1CC1)N1CC1)c1ccc([N+](=O)[O-])c(Oc2cccc(C(=O)N(C)C)c2)c1 [OBI-3424, (S)-1-(3-(3-N,N-dimethylaminocarbonyl)phenoxyl-4-mtrophenyl)-1-ethyl-N,N′-bis(ethylene)phosphoramidate]
CD69^+ TH cells (CD45^+CD4^+CD69^+) TH Gated % [1]: 75.09%
Body Weight, Mean ([2]; Day 0, group mean): 23.42 g
Body Weight, Mean ([2]; Day 1, group mean): 22.79 g
Body Weight, Mean ([2]; Day 7, group mean): 23.24 g
Body Weight, Mean ([2]; Day 28, group mean): 23.46 g
Body Weight, Mean ([2]; Day 35, group mean): 23.70 g
CTL cells (CD45^+CD8^+) Total % [3]: 43.72%
Granzyme B^+ CTL cells (CD45^+ CD8^+GrB+) Total % [3]: 42.67%
